The record followed here is patent US7550425B2, “Diuretic peptide conjugates” (Zealand Pharma A/S, priority 2000, dated 2009).

Like-named read-outs stand apart in the source and are kept apart here.

Series [1] is described as follows: In vitro stability in heparinised human plasma. The series is classed as in vitro ADME. On the procedure: In addition, the degradation of Compound 1 of the invention has been studied in heparinised human plama.
The stability of peptides is analysed in human plasma. The peptides are incubated at 37° C. in plasma and samples taken at approx. 8 regular intervals between t=0 and t=390 min for Compound 1 and nociceptin-NH2, and at 9 intervals between t=0 and t=32 min for Compound CE1 are analysed by HPLC. […] This is done by subsequent injections of the drug, plasma, and a co-injection with the drug and the plasma, followed by optimisation of the LC method parameters until a satisfactory separation is obtained. Three parallel experiments are performed for each plasma type. 100 μl of peptide is mixed with 900 μl plasma at t=0 and incubated at 37° C. (drug-plasma mixture conc. 0.1 mg/ml). Samples of 100 μl of the drug-plasma mixture are removed at appropriate intervals and the degradation stopped by precipitation of the sample with 10 μl MeCN:TFA 50:50 v/v. A control plasma sample without the drug treated in the same manner is also taken. […] The resulting supernatant solution is transferred to 300 μl HP autosamler vials and analyzed by HPLC. […]
The samples are analysed in the following order: blank, the peptide at 0.1 mg/mL, the plasma without the peptide, the three parallel samples for t=0, the three parallel samples for t=5 min. the three parallel samples for t=60 min. etc. […]

The test system of series [2] is conscious Sprague Dawley rats. The series is classed as in vivo, rat. Conditions: i.v. bolus 30 nmol/kg. On the procedure: In the conscious rat model, the animal is chronically instrumented with catheters in the urinary bladder, the femoral artery, and the femoral vein. The animal receives a continuous i.v. infusion with isotonic saline, 50 μl/min. Urine is collected in vials in consequtive urine collection periods of 10 min each. After two control periods, the test compound is administered and fractionated urine collections (10 min periods) are continued for at least two hours. Urinary concentrations of sodium and potassium are determined by flame photometry (Instrumentation Laboratory 943) using caesium as internal standard.
The diuretic effect of the peptide conjugates of the invention has been tested in conscious rats, where Compound 1 elicits a powerful and sustained diuretic response. […] The results are shown in FIGS. 2 to 8 wherein HR is heart rate, MAP is mean arterial pressure, V is urine flow rate, UNaV is urinary excretion rate of sodium, RSNA is renal sympathetic nerve activity expressed as % of the control level, Cosm is the osmolar clearance, and CH2O is free water clearance. […]
One hour prior to the start of each experiment a food pellet (standard rodent chow) was placed within access to the rat though a hole in the rat holder. The number and time of feeding responses (i.e., times in which the rat began to eat the food pellet) was recorded before, and after drug administration. […]

As to `CC(C)C[C@H](NC(=O)[C@H](CCCCN)NC(=O)[C@H](CCCNC(=N)N)NC(=O)[C@H](C)NC(=O)[C@H](CO)NC(=O)[C@H](CCCCN)NC(=O)[C@H](CCCNC(=N)N)NC(=O)[C@H](C)NC(=O)CNC(=O)[C@@H](NC(=O)[C@H](Cc1ccccc1)NC(=O)CNC(=O)CNC(=O)[C@@H](N)Cc1ccccc1)[C@@H](C)O)C(=O)N[C@@H](C)C(=O)N[C@@H](CC(N)=O)C(=O)N[C@@H](CCC(N)=O)C(N)=O` [nociceptin-NH2], the half-life was 1.62 h in series [1] (37° C., mean (n=3) +/− deviation, read-out: T1/2 in min (degradation in human heparinised plasma)) and about 1.5 h in series [1] (heparinised human plasma, read-out: half life in plasma (converted)). Moreover, in series [2], the “heart rate, arterial pressure and RSNA” value is “rapid bradycardia, a hypotensive response and initial RSNA suppression”.
